Reference: paper PMC3578011 (2013)

The chains behind the UniProt entries cited, without tags or fusion partners.
UniProt P21554, whole entry: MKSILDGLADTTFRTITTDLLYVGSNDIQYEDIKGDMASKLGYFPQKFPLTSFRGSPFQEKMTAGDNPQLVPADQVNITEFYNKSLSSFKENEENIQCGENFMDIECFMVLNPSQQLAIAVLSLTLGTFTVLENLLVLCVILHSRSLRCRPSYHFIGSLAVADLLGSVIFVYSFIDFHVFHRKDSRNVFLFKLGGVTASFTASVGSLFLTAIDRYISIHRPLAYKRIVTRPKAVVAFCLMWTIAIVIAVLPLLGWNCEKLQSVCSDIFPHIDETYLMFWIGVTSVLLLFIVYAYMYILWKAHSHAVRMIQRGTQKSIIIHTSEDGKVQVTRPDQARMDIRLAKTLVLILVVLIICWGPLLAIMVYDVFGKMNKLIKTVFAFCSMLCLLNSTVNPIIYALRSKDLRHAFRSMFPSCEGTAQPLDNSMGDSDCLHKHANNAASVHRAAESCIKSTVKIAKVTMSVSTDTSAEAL

Experiments:
[1] = molecular target: T1, CB1 (Homo sapiens, UniProt P21554); test: Radioligand binding assay, cooperativity with [3H]CP55,940
[2] = molecular target: T1, CB1; test: Radioligand binding assay, cooperativity with [3H]SR141716A

Q: What does the source list for `CCCCCc1c(C(=O)NCCc2ccc(N3CCCCC3)cc2)[nH]c2ccc(Cl)cc12` [ICAM-b, 5-chloro-3-pentyl-N-(4-(piperidin-1-yl)phenethyl)-1H-indole-2-carboxamide]?
A: Kb [1]: 470 nM; Kb [2]: 832 nM
